Read-outs that look alike come from different tables or passages of the source.
Tests used:
E. cloacae = E. cloacae OC 4080; with SMAP-29C* vs alone
E. coli = conditions: with SMAP-29C* vs alone
P. aeruginosa = P. aeruginosa PA01 oprD; with SMAP-29C* vs alone

NC[C@H]1O[C@H](O[C@H]2[C@H](O)[C@@H](O[C@H]3O[C@H](CO)[C@@H](O)[C@H](N)[C@H]3O)[C@H](N)C[C@@H]2N)[C@H](O)[C@@H](O)[C@@H]1O [Kan, kanamycin]
Kan MIC Fold change (↓ decrease) (E. cloacae): ↓>8x fold
Kan MIC Fold change (↓ decrease) (E. coli; E. coli ATCC25922): ↓>8x fold
Kan MIC Fold change (↓ decrease) (E. coli; E. coli IU-342): ↓2x fold
Kan MIC Fold change (↓ decrease) (P. aeruginosa): ↓2x fold

Reference: patent publication US10435447B2, “Bacteriocidal peptides and uses thereof” (priority 2015, dated 2019)
